Assays:
[1] = Octanol-water partition coefficient of technetium-99m tricarbonyl glycines; assay type: physicochemical; settings: n-octanol / 0.05 M PBS pH 7.4, measured in triplicate
Protocol: In order to predict the in vivo residence and degradation rate of technetium-99m tricarbonyl glycin complexes, octanol-water partition coefficients were measured in triplicate as follows. To a mixture of 500 μl of nitrogen-purged 0.05 M PBS (phosphate-buffered saline, pH 7.4) and 500 μl of n-octanol was added 10 μl of technetium-99m tricarbonyl glycine, glycine trimer, or glycine pentamer, followed by vortexing for 3 min. Centrifugation at 3,000×g for 5 min in a SORVALL FRESCO centrifuge (Asheville, N.C., USA) gave two distinct phases. From each of the PBS layer and the octanol layer was taken 20 μl which was then measured for radioactivity using a well-type NaI (TI) scintillation detector. The coefficient is calculated according to the following equation.
Log p=log(octanol(cpm)/water(cpm)) <Equation>

[2] = Micro-SPECT/CT imaging of technetium-99m tricarbonyl glycine complexes in animal model; assay type: in vivo, ICR mice; settings: mice, intravenous injection, 37 MBq, FIG. 2
Source text: (1) Materials: Carbon monoxide (99.5%) was provided from Daehan Gas (Seoul, Korea) and purified using an oxygen trap before use. Technetium-99m was produced as pertechnetate using Unitech Tc-99m generator (Samyoung Unitech. Co. Ltd., Korea) in 0.9% sodium chloride. glycin, Gly-Gly-Gly (glycine trimer), and Gly-Gly-Gly-Gly-Gly (glycine pentamer) were purchased from Sigma Chemical Co. (St. Louis, USA). (2) Animal test: Female germ-free ICR mice (7 weeks old) were purchased from Orient, Inc. (Seoul, Korea) and acclimated for one week before use in experiments. The mice were maintained at a relative humidity of 50±5% at a temperature of 23±2° C. on a 12-h light-dark cycle, allowed to have access to food and water ad libitum, and acclimated for at least 1 week prior to usage. All animal experiments were conducted after approval by the Institute Animal Care and Use Committee of the Korean Atomic Energy Research Institute.
For Micro-SPECT/CT imaging, mice were scanned using the Inveon small-animal SPECT/CT system equipped with a single pinhole collimator (Siemens Medical Solutions, Knoxville, Tenn., USA). The mice were anesthetized with 2% isoflurane (prone position in a cradle) and intravenously injected with the technetium-99m tricarbonyl at a dose of 37 MBq 30 min before Micro-SPECT imaging. […]

For technetium-99m tricarbonyl-glycine, the “Octanol/Water Partition Coeffi. (Kow logP)” value [1] was −0.48 ± 0.00, the clearance from blood ([2]; 30 min before Micro-SPECT imaging) was “rapid blood clearance” and the “radioactivity in the liver” value ([2]; SPECT/CT) was “some radioactivity was detected in the liver”.

From patent publication US20150151011A1, “Preparation of Technetium-99M Tricarbonyl Labeled Glycine Monomer or Oligomer Containing Probes That Have Biomolecules and Its Application as Imaging Complex-Composition” (KOREA ATOMIC ENERGY RESEARCH INSTITUTE, priority 2012, published 2015)
